Drawing on PubChem BioAssay AID489033 (Sanford-Burnham Center for Chemical Genomics, 2010), this text covers IC50 for 3 compounds.

Activity calls are given as the source filed them. The rule behind the calls is not given here.

As usually defined, the IC50 is the concentration at which inhibition is half-maximal.

In the test the test system is 697B B-cell line, NF-kB luciferase reporter luminescence. The test is described as follows: inhibitors of B-cell NF-kB luciferase signal – 697B cells, luminescence, selectivity assay for T-cell antigen receptor NF-kB inhibitors, dose response (AID 489033).
Consider `O=c1c2ccccc2nc(/C=C/c2ccc([N+](=O)[O-])o2)n1-c1ccc(O)cc1`, for which the IC50 was 2.8 µM.

As to `Cc1ccnc2c1ccc1cccnc12`, the IC50 was 19.3 µM.

As for `CC[n+]1c(/C=C/N(C)c2ccccc2)oc2ccccc21`, the IC50 is inactive: > 80 µM.
